Where “and” joins values, the source holds several entries; their conditions need not be identical. Equal values may be shown once. Starred links: 1 amine or outer side, 2 acyl side, 3 side chain; linkers in the order of their positions; H or OH if unused. Non-standard residues stand in square brackets, D forms with d. Residues, ends and D or L forms follow the SMILES beside them. AMPB = O=C(c1ccc(N=Nc2ccc(CN[*:1])cc2)cc1)[*:2]; Ahx = NCCCCCC(=O)O; βAla = NCCC(=O)O
Target: T1, WDR5Δ23 (Homo sapiens, UniProt P61964)
T1 construct: His6-SUMO (N, cleaved yes); made in house; host or cells: E. coli DH5α (so in the source)
Assay: Fluorescence polarization (FP)-based competitive binding assay
Conditions: peptide irradiated at 366 nm (cis isomer), 72 nM WDR5Δ23, 20 nM tracer 22; for Ki: read-out: Ki, irradiation at 366 nm (cis)

CC(C)C[C@H](NC(=O)[C@H](Cc1c[nH]cn1)NC(=O)[C@@H](NC(=O)[C@H](CCC(=O)O)NC(=O)[C@H](C)NC(=O)[C@H](CCCNC(=N)N)NC(=O)c1ccc(N=Nc2ccc(CNC(=O)[C@@H](N)CO)cc2)cc1)C(C)C)C(=O)N[C@@H](CCCNC(=N)N)C(=O)N[C@@H](CCCCN)C(=O)N[C@@H](CO)C(N)=O [peptide 5, H2N-SXRAEVHLRKS-CONH2] (H-S[AMPB]RAEVHLRKS-NH2)
IC50: 24900 ± 5700 nM | Ki: 433 nM and 432 nM

CC(C)C[C@H](NC(=O)[C@H](Cc1c[nH]cn1)NC(=O)[C@@H](NC(=O)c1ccc(N=Nc2ccc(CNC(=O)[C@H](C)NC(=O)[C@H](CCCNC(=N)N)NC(=O)[C@H](C)NC(=O)[C@@H](N)CO)cc2)cc1)C(C)C)C(=O)N[C@@H](CCCNC(=N)N)C(=O)N[C@@H](CCCCN)C(=O)N[C@@H](CO)C(N)=O [peptide 7, H2N-SARAXVHLRKS-CONH2] (H-SARA[AMPB]VHLRKS-NH2)
IC50: 475 ± 88 nM | Ki: 6.5 ± 1.4 nM

CC(C)C[C@H](NC(=O)[C@H](Cc1c[nH]cn1)NC(=O)c1ccc(N=Nc2ccc(CNC(=O)[C@H](CCC(=O)O)NC(=O)[C@H](C)NC(=O)[C@H](CCCNC(=N)N)NC(=O)[C@H](C)NC(=O)[C@@H](N)CO)cc2)cc1)C(=O)N[C@@H](CCCNC(=N)N)C(=O)N[C@@H](CCCCN)C(=O)N[C@@H](CO)C(N)=O [peptide 8, H2N-SARAEXHLRKS-CONH2] (H-SARAE[AMPB]HLRKS-NH2)
IC50: 461 ± 140 nM | Ki: 9.1 ± 2.2 nM

CC(C)C[C@H](NC(=O)c1ccc(N=Nc2ccc(CNC(=O)[C@@H](NC(=O)[C@H](CCC(=O)O)NC(=O)[C@H](C)NC(=O)[C@H](CCCNC(=N)N)NC(=O)[C@H](C)NC(=O)[C@@H](N)CO)C(C)C)cc2)cc1)C(=O)N[C@@H](CCCNC(=N)N)C(=O)N[C@@H](CCCCN)C(=O)N[C@@H](CO)C(N)=O [peptide 9, H2N-SARAEVXLRKS-CONH2] (H-SARAEV[AMPB]LRKS-NH2)
IC50: 2580 ± 23 nM | Ki: 39.7 ± 0.35 nM

CC(C)[C@H](NC(=O)[C@H](CCC(=O)O)NC(=O)[C@H](C)NC(=O)[C@H](CCCNC(=N)N)NC(=O)[C@H](C)NC(=O)[C@@H](N)CO)C(=O)N[C@@H](Cc1c[nH]cn1)C(=O)NCc1ccc(N=Nc2ccc(C(=O)N[C@@H](CCCNC(=N)N)C(=O)N[C@@H](CCCCN)C(=O)N[C@@H](CO)C(N)=O)cc2)cc1 [peptide 10, H2N-SARAEVHXRKS-CONH2] (H-SARAEVH[AMPB]RKS-NH2)
IC50: 1490 ± 1300 nM | Ki: 33.3 ± 4.2 nM

CC(C)C[C@H](NC(=O)[C@H](Cc1c[nH]cn1)NC(=O)[C@@H](NC(=O)[C@H](CCC(=O)O)NC(=O)[C@H](C)NC(=O)[C@H](CCCNC(=N)N)NC(=O)[C@H](C)NC(=O)[C@@H](N)CO)C(C)C)C(=O)NCc1ccc(N=Nc2ccc(C(=O)N[C@@H](CCCCN)C(=O)N[C@@H](CO)C(N)=O)cc2)cc1 [peptide 11, H2N-SARAEVHLXKS-CONH2] (H-SARAEVHL[AMPB]KS-NH2)
IC50: 4540 ± 390 nM | Ki: 70.4 ± 6.6 nM

CC(C)C[C@H](NC(=O)[C@H](Cc1c[nH]cn1)NC(=O)[C@@H](NC(=O)[C@H](CCC(=O)O)NC(=O)[C@H](C)NC(=O)[C@H](CCCNC(=N)N)NC(=O)[C@H](C)NC(=O)[C@@H](N)CO)C(C)C)C(=O)N[C@@H](CCCNC(=N)N)C(=O)NCc1ccc(N=Nc2ccc(C(=O)N[C@@H](CO)C(N)=O)cc2)cc1 [peptide 12, H2N-SARAEVHLRXS-CONH2] (H-SARAEVHLR[AMPB]S-NH2)
IC50: 2640 ± 160 nM | Ki: 40.6 ± 2.5 nM

CC(C)C[C@H](NC(=O)[C@H](Cc1c[nH]cn1)NC(=O)c1ccc(N=Nc2ccc(CNC(=O)[C@H](C)NC(=O)[C@H](CCCNC(=N)N)NC(=O)[C@H](C)NC(=O)[C@@H](N)CO)cc2)cc1)C(=O)N[C@@H](CCCNC(=N)N)C(=O)N[C@@H](CCCCN)C(=O)N[C@@H](CO)C(N)=O [peptide 13, H2N-SARAXHLRKS-CONH2] (H-SARA[AMPB]HLRKS-NH2)
IC50: 664 ± 80 nM | Ki: 9.47 ± 1.2 nM

CC(=O)N[C@@H](C)C(=O)N[C@@H](CCCNC(=N)N)C(=O)N[C@@H](C)C(=O)NCc1ccc(N=Nc2ccc(C(=O)N[C@H](C(=O)N[C@@H](Cc3c[nH]cn3)C(=O)N[C@@H](CC(C)C)C(=O)N[C@@H](CCCNC(=N)N)C(=O)N[C@@H](CCCCN)C(=O)N[C@@H](CO)C(N)=O)C(C)C)cc2)cc1 [peptide 14, Ac-ARAXVHLRKS-CONH2] (Ac-ARA[AMPB]VHLRKS-NH2)
Ki: 4.25 ± 0.83 nM

CC(=O)N[C@@H](C)C(=O)N[C@@H](CCCNC(=N)N)C(=O)N[C@H](C(=O)NCc1ccc(N=Nc2ccc(C(=O)N[C@H](C(=O)N[C@@H](Cc3ccc(O)cc3)C(N)=O)C(C)C)cc2)cc1)[C@@H](C)O [peptide 15, Ac-ARTXVY-CONH2] (Ac-ART[AMPB]VY-NH2)
IC50: 185 ± 20 nM | Ki: 2.07 ± 0.24 nM

CC(C)C[C@H](NC(=O)[C@H](Cc1c[nH]cn1)NC(=O)[C@@H](NC(=O)c1ccc(N=Nc2ccc(CNC(=O)[C@H](C)NC(=O)[C@H](CCCNC(=N)N)NC(=O)[C@H](C)NC(=O)[C@@H](N)CO)cc2)cc1)C(C)C)C(=O)N[C@@H](CCCNC(=N)N)C(=O)N[C@@H](CCCCN)C(=O)N[C@@H](CO)C(=O)N[C@@H](CCCNC(=N)N)C(=O)N[C@@H](CCCNC(=N)N)C(=O)N[C@@H](CCCNC(=N)N)C(=O)N[C@@H](CCCNC(=N)N)C(=O)N[C@@H](CCCNC(=N)N)C(=O)N[C@@H](CCCNC(=N)N)C(=O)N[C@@H](CCCNC(=N)N)C(=O)N[C@@H](CCCNC(=N)N)C(N)=O [peptide 16, H2N-SARA-AMPB-VHLRKS-R8-NH2] (H-SARA[AMPB]VHLRKSRRRRRRRR-NH2)
IC50: 192 ± 10 nM | Ki: 2.05 ± 0.17 nM

CC(C)C[C@H](NC(=O)[C@H](Cc1c[nH]cn1)NC(=O)[C@@H](NC(=O)c1ccc(N=Nc2ccc(CNC(=O)[C@H](C)NC(=O)[C@H](CCCNC(=N)N)NC(=O)[C@H](C)NC(=O)[C@@H](N)CO)cc2)cc1)C(C)C)C(=O)N[C@@H](CCCNC(=N)N)C(=O)N[C@@H](CCCCN)C(=O)N[C@@H](CO)C(=O)N[C@@H](CCCNC(=N)N)C(=O)NCCCCCC(=O)N[C@@H](CCCNC(=N)N)C(=O)N[C@@H](CCCNC(=N)N)C(=O)NCCCCCC(=O)N[C@@H](CCCNC(=N)N)C(=O)N[C@@H](CCCNC(=N)N)C(=O)NCCCCCC(=O)N[C@@H](CCCNC(=N)N)C(=O)N[C@@H](CCCNC(=N)N)C(=O)NCCCCCC(=O)N[C@@H](CCCNC(=N)N)C(=O)NCCCCCC(=O)NCCC(N)=O [peptide 17, H2N-SARA-AMPB-VHLRKS-(RahxR)4RAhxB-NH2] (H-SARA[AMPB]VHLRKSR[Ahx]RR[Ahx]RR[Ahx]RR[Ahx]R[Ahx][βAla]-NH2)
IC50: 227 ± 24 nM | Ki: 2.6 ± 0.36 nM
